Assay results reported in patent US9133180B2, “Aurora and FLT3 kinases modulators” (SAREUM LIMITED, priority 2012, dated 2015).

Amino acid sequences for entries named in this document (tags omitted). Residues count along the entry.
UniProt Q96GD4, whole entry: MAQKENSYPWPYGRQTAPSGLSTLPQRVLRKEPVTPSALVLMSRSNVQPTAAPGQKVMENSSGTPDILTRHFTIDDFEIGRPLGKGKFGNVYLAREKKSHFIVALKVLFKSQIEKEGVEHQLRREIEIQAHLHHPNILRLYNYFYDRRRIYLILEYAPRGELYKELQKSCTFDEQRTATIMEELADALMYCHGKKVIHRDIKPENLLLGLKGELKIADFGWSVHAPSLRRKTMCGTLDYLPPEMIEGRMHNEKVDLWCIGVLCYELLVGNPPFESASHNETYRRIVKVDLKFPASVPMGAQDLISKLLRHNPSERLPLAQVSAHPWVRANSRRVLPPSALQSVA
UniProt P36888, 27-993: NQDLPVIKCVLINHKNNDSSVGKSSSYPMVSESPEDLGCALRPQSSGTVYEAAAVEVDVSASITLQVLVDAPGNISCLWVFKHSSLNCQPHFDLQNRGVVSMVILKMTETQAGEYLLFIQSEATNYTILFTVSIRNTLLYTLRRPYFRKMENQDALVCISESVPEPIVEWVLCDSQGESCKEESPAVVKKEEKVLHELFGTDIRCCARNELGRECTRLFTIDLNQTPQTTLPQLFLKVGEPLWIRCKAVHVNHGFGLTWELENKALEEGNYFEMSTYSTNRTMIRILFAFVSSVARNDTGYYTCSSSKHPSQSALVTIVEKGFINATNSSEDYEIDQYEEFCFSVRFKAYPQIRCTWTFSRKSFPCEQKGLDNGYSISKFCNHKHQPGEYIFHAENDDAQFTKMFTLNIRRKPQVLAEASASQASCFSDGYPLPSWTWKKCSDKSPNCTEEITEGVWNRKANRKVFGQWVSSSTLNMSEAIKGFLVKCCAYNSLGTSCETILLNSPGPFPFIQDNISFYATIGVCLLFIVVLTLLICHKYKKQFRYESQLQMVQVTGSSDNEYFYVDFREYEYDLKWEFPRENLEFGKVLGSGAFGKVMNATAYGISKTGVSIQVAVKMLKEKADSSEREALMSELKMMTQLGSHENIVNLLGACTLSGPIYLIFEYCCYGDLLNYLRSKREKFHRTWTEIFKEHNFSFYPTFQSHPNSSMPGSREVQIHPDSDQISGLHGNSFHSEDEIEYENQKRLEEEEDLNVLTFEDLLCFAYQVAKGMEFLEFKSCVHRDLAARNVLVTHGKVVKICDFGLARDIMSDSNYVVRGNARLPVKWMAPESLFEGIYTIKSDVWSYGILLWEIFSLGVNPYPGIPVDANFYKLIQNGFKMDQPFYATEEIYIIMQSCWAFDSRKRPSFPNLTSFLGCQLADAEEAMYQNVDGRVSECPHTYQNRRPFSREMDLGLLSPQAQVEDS

Key:
Aurora B kinase = Aurora B kinase (Homo sapiens (Human), UniProt Q96GD4); test: Aurora B kinase 33P-ATP filter assay (Reaction Biology Corp.); assay type: biochemical
Protocol: (§1) The ability of the compounds of the invention to inhibit FLT3 kinase and Aurora A and Aurora B kinases was determined using the assays described below.
(§2) Kinase assays were performed at Reaction Biology Corp., Malvern, Pa., USA, using the following general procedure:
(§3) 1) Prepare indicated substrate in freshly prepared Base Reaction Buffer (20 mM Hepes pH 7.5, 10 mM MgCl2, 1 mM EGTA, 0.02% Brij35, 0.02 mg/ml BSA, 0.1 mM Na3VO4, 2 mM DTT, 1% DMSO).
(§4) 2) Deliver cofactors (1.5 mM CaCl2, 16 ug/mL Calmodulin, 2 mM MnCl2) to the substrate solution above.
(§5) 3) Deliver indicated kinase into the substrate solution and gently mix
(§6) 4) Deliver varying concentrations of test compound in DMSO into the kinase reaction mixture.
(§7) 5) Deliver ^33P-ATP (specific activity 0.01 µCi/µL final) into the reaction mixture to initiate the reaction.
(§8) 6) Incubate kinase reaction for 120 min at room temperature.
(§9) 7) Reactions are spotted onto P81 ion exchange filter paper (Whatman #3698-915)
(§10) 8) Unbound phosphate is removed by washing filters extensively in 0.75% phosphoric acid.
(§11) 9) ^33P signal was determined using Typhoon phosphorimagers (GE Healthcare).
(§12) Substrates: Kemptide=[H-LRRASLG] Abltide=[[…]]
(§13) For comparison purposes, the IC50 values for the compound 2-(1H-Indol-4-yl)-5-(4-piperazin-1-yl-phenyl)-oxazole-4-carboxylic acid amide disclosed in Example M-12 of WO2008/139161 are also shown.

RPMI8226 = test: CellTiter-Blue assay, haematological cell line; assay type: cell-based; conditions: Homo sapiens, RPMI-8226, 96 h; RPMI8226 (MM), four days treatment
Protocol: The compounds of Examples 2 and 7 were tested against a range of human haematological cell lines using the CellTiter-Blue® assay (#G8081, Promega) according to the manufacturer's instructions. Cells were harvested from exponential phase cultures, counted and plated in 96 well flat-bottom microtiter plates at a cell density of 20,000-90,000 cells/well. After a 24 h recovery period to allow the cells to resume exponential growth, 10 μl of culture medium (four control wells/plate) or of culture medium with test compound were added. The compounds were applied in duplicates at ten concentrations and treatment continued for four days. After treatment of cells, 10 μl/well CellTiter-Blue® reagent was added. Following an incubation period of up to four hours, fluorescence (FU) was measured by using the EnVision Xcite multilabel reader (excitation λ=531 nm, emission λ=615 nm). The compounds were tested in two to four independent experiments for each cell line.

FLT3 kinase = FLT3 kinase (Homo sapiens (Human), UniProt P36888); test: FLT3 kinase 33P-ATP filter assay (Reaction Biology Corp.); assay type: biochemical
Protocol: as §1, §2, §3, §4, §5, §6, §7, §8, §9, §10, §11, §12, §13

IC50 (FLT3 kinase)	Compound	IC50 (Aurora B kinase)	IC50 (RPMI8226)
	Cc1cc(F)c2[nH]ccc2c1-c1nc(C(N)=O)c(-c2ccc(N3CCNC(C)(C)C3)cc2)o1 [Example 7, 2-(5-Methyl-7-Fluoro-1H-Indol-4-yl)-5-[4-(3,3-dimethyl-piperazin-1-yl)-phenyl]-oxazole-4-carboxylic acid amide]	5.93 nM	1300 nM
1.54 nM	CC1(C)CN(c2ccc(-c3oc(-c4cccc5[nH]ccc45)nc3C(N)=O)cc2)CCN1 [Example 11, 2-(1H-Indol-4-yl)-5-[4-(3,3-dimethyl-piperazin-1-yl)-phenyl]-oxazole-4-carboxylic acid amide]		
